# Measurements from patent US11266706B2, “Method for preventing or alleviating lipid metabolism disorders using composition containing green tea extract with increased specific ingredient content” (AMOREPACIFIC CORPORATION, priority 2017, dated 2022).
# Test: Stability of each ingredient according to time and temperature (HPLC content)
# Assay type: physicochemical
# Design: content of ingredient: unit not given here
# Procedure: In order to compare the catechin contents of the fermented green tea extract, each sample was analyzed by WATERS 2695 HPLC manufactured by Alliance, and analyzed using an ODS (C18) column. The content of catechin including GCG over time maintained at 80° C. is shown in Table 1, the GCG content during this process was tracked, and the time zone in which the most amount of GCG was present was confirmed. Each numerical value in Table 1 indicates the wt % of the corresponding ingredient, based on the total weight ratio of the extract.
substance,measurement,setting,value
(−)-catechin gallate [CG],content of ingredient,"Day 1 (Feb. 20, 2017)",1.04
same,content of ingredient,"Week 1 (Feb. 27, 2017)",1.20
same,content of ingredient,"Week 2 (Mar. 6, 2017)",1.19
same,content of ingredient,Week 16: 45° C./Normal pressure,1.22
same,content of ingredient,Week 16: Room temperature/Normal pressure,1.21
same,content of ingredient,Week 25: 45° C./Normal pressure,1.13
same,content of ingredient,Week 25: Refrigerated/Normal pressure,1.12
same,content of ingredient,Week 25: Room temperature/Normal pressure,1.11
same,stability of ingredient content over time and temperature,"summary in words of Table 3, FIGS. 6 to 8",maintained relatively stably
